Source: patent publication US7316928B2, “Plant fatty acid amide hydrolases” (The University of North Texas, priority 2003, dated 2008)

Chains of the proteins cited; added tags and fusions are not shown.
UniProt Q7XJJ7, whole entry: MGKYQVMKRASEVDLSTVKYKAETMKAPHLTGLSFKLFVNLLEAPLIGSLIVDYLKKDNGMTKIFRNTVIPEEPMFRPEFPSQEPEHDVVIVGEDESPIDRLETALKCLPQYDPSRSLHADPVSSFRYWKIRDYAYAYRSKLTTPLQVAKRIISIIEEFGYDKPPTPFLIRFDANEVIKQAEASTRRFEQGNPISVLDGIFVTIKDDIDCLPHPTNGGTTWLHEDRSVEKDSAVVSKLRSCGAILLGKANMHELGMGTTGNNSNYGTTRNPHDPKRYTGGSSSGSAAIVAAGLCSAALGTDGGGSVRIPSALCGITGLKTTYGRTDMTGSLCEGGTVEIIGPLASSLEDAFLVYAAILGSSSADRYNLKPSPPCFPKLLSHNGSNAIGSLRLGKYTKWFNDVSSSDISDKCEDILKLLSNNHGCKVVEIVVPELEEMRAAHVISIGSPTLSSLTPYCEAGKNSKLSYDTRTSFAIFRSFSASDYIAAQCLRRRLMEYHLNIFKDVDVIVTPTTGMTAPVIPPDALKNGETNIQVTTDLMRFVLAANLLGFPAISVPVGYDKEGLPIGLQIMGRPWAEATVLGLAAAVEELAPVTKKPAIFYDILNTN

Target: Arabidopsis NAE amidohydrolase (FAAH) (Arabidopsis thaliana, UniProt Q7XJJ7)
Conditions: for Specific Activity: 30 min at 30° C.

CCCCC/C=C\C/C=C\C/C=C\C/C=C\CCCCOP(=O)(F)OC (stereo not shown)
Specific Activity (0.1 nM inhibitor): 9.69 ± 0.89 μmol h^−1 mg^−1 Protein
Specific Activity (1 nM inhibitor): 5.62 ± 0.56 μmol h^−1 mg^−1 Protein
effect on NAE hydrolysis by the Arabidopsis enzyme (10 nM inhibitor): completely eliminated
Specific Activity (10 nM inhibitor): 0.00 ± 0.00 μmol h^−1 mg^−1 Protein

Like-named read-outs stand apart in the source and are kept apart here.
